According to patent US20210269848A1, “COMPOSITION OF MICROORGANISMS INDICATING DECONTAMINATION” (NOVOLYZE, priority 2018, published 2021):

System: indicator microorganisms

Compound: CCN(Cc1cccc(S(=O)(=O)O)c1)c1ccc(C(=C2C=CC(=[N+](CC)Cc3cccc(S(=O)(=O)O)c3)C=C2)c2ccccc2S(=O)(=O)[O-])cc1 [brilliant blue FCF]
- effect on resistance of the indicator microorganisms to decontamination processes: increases their resistance to decontamination processes
